# This is a selection; strong and weak results do not stand in their true shares. Calls of active or inactive are those of the source. No stated cut-off is given here; in the data, active means inhibition above about 75%; inconclusive means no clear call, values can overlap the other calls; inactive means below that; tested in HMLE shEcad cells.
# Assay: growth suppression of cancer stem-like cells – cell-based, luminescence, primary screen (AID 2717)
# Conditions: cancer stem cell-like cells viability, at 7.5 µM, active compounds read high
row,SMILES,inhibition
1,CCCOc1ccc(NP(C)(=O)Oc2ccc(Cl)cc2)cc1 (stereo unspecified),inactive: -18.1%
2,CP(=O)(Nc1ccc(SC(F)(F)F)cc1)Oc1ccccc1 (stereo unspecified),inactive: 4.8%
3,Nc1cccc([As](=O)(O)c2ccccc2)c1,inactive: -3.67%
4,Cc1ccc(OCC(=O)OC2CN3CCC2CC3)cc1 (stereo unspecified),inactive: 2.43%
5,O=[As](O)(c1cccs1)c1cccs1,inactive: 9.29%
6,O=P1(Nc2ccc(Br)cn2)COc2ccccc2OC1,inactive: -6.83%
7,NS(=O)(=O)c1cccc(NC(=O)COC(=O)C(O)(c2ccccc2)c2ccccc2)c1,inactive: -12.6%
8,O=P1(Nc2ccccn2)COc2ccccc2OC1,inactive: -12.5%
9,CCC1=CC2Cc3nc4ccc(Cl)cc4c(N)c3C(C1)C2 (stereo unspecified),inactive: 1.58%
10,O=[N+]([O-])c1cc([N+](=O)[O-])c(-n2nnc3ccccc32)c([N+](=O)[O-])c1,inactive: -3.83%
11,CCOP(=O)(NC(=NC(C)c1ccccc1)NC(C)c1ccccc1)OCC (stereo unspecified),inactive: -14.2%
12,CCOP(=O)(Nc1ccc(C)cn1)OCC,inactive: -9%
13,CN(CCCl)Cc1cc(Cl)c(NC2=NCCN2)c(Cl)c1,inactive: 4.64%
14,Clc1n[nH]nc1-c1nn[nH][15n]1,inactive: -6.51%
15,CC(C)(C)C(=O)NC(Sc1ncccn1)C(Cl)(Cl)Cl (stereo unspecified),inactive: -5.37%
16,O=[N+]([O-])c1cc([N+](=O)[O-])c(-c2cnn(-c3ccccc3)c2)c([N+](=O)[O-])c1,inactive: 11.6%
17,COc1ccccc1CNC(=O)COC(=O)C(O)(c1ccccc1)c1ccccc1,inactive: -12.3%
18,CC(C)/C=N\N=C(\N)N[N+](=O)[O-],inactive: -8.69%
19,CN(C(=O)Cc1ccc(Cl)c(Cl)c1)[C@@H]1CCCC[C@H]1N1CCCC1,inactive: -12.4%
20,O=[As](O)(c1ccccc1Br)c1ccccc1Br,inactive: -3.27%
21,CC1(CBr)Cn2c(nc3ccccc3c2=O)S1 (stereo unspecified),inactive: -2.25%

row,SMILES,inhibition
1,Cc1nc2ccc3ccccc3c2s1.O=[N+]([O-])c1cc([N+](=O)[O-])c(O)c([N+](=O)[O-])c1,inactive: 3.83%
2,O=C(OC1CN2CCC1CC2)c1ccc(Cl)cc1 (stereo unspecified),inactive: -8.14%
3,O=[As](O)(O)c1cccnc1,inactive: 6.4%
4,COc1cc(C(=O)NCC2(N3CCOCC3)CCCCC2)cc(Cl)c1OC(C)C,inactive: 53.6%
5,COc1ccccc1OP(C)(=O)Nc1cccc(Br)c1 (stereo unspecified),inactive: -0.844%
6,CS(=O)(=O)c1ccc(Cl)c(NC(=O)COC(=O)C(O)(c2ccccc2)c2ccccc2)c1,inactive: -3.83%
7,Cc1cccc(OCC(=O)OC2CN3CCC2CC3)c1 (stereo unspecified),inactive: 1%
8,O=[As](O)(c1cccc(O)c1)c1cccc(O)c1,inactive: -5.85%
9,Cc1cc(C)cc(OP(C)(=O)Nc2ccc(C)cc2C)c1 (stereo unspecified),inactive: -10.1%
10,CCOC(=O)c1ccc(NP(C)(=O)Oc2cc(C)cc(C)c2)cc1 (stereo unspecified),inactive: 24.7%
11,Cc1cc(C)cc(OP(C)(=O)Nc2ccccn2)c1 (stereo unspecified),inactive: -2.33%
12,CP(=O)(Nc1cccc(Br)c1)Oc1ccccc1 (stereo unspecified),inactive: -0.972%
13,Cc1ccc(NCCc2c([N+](=O)[O-])cc([N+](=O)[O-])cc2[N+](=O)[O-])cc1,inactive: 28%
14,Nc1cccc2c([As](=O)(O)O)cccc12,inactive: -0.495%
15,Cc1ccc(C)c(NP(C)(=O)Oc2ccccc2)c1 (stereo unspecified),inactive: -11.5%
16,CCCOP(=S)(Nc1nc(N)cc(=O)[nH]1)OCCC,inactive: -7.32%
17,CCOP(=O)(Nc1cccc2ccccc12)OCC,inactive: -1.14%
18,CCOP1(=S)c2c(C)nn(CCC#N)c2N=C(c2ccccc2F)N1C (stereo unspecified),inactive: -5.58%
19,O=C(O)c1cccc(Nc2c([N+](=O)[O-])cc([N+](=O)[O-])cc2[N+](=O)[O-])c1,inactive: 2.72%
20,O=P(Nc1nccs1)(Oc1ccccc1)Oc1ccccc1,inactive: 8.93%
21,O=P(Nc1nccs1)(c1ccccc1)c1nc2ccccc2s1 (stereo unspecified),inactive: -0.91%

row,SMILES,inhibition
1,CS(=O)(=O)c1cc([N+](=O)[O-])c2no[n+]([O-])c2c1,inactive: -26.9%
2,Nc1ccccc1[As](=O)(O)c1ccccc1,inactive: -4.7%
3,O=C(O)COc1ccc([As](=O)(O)O)cc1[N+](=O)[O-],inactive: -1.37%
4,NC(=O)Nc1ccc([As](=O)(O)O)cc1,inactive: 2.51%
5,N#CCCN(C(=O)COC(=O)C(O)(c1ccccc1)c1ccccc1)c1ccc(F)cc1,inactive: -22.1%
6,CN(C(=O)Cc1ccccc1)[C@@H]1CC[C@]2(CCCO2)C[C@H]1N1CCCC1,inactive: -5.16%
7,CCOP1(=S)c2c(C)nn(CCC#N)c2N=C(c2ccc(F)cc2)N1C (stereo unspecified),inactive: -5.89%
8,O=[N+]([O-])c1ccc2c(c1)nnn2O,inactive: -17.3%
9,CN(C)C(=O)c1cc([N+](=O)[O-])cc2c1-c1c(cc([N+](=O)[O-])cc1[N+](=O)[O-])C2=O,inactive: 64.6%
10,CC1=NCCc2c1[nH]c1ccccc21.O=[N+]([O-])c1cc([N+](=O)[O-])c(O)c([N+](=O)[O-])c1,inactive: -3.32%
11,CN(C(=O)Cc1ccc(Cl)c(Cl)c1)[C@H]1CC[C@@]2(CCCO2)C[C@@H]1N1CCCC1,inactive: -16.7%
12,O=[N+]([O-])c1cc([N+](=O)[O-])c(Nc2cccnc2)c([N+](=O)[O-])c1,inactive: 2.58%
13,C[As](=O)(O)c1cccc(C(=O)O)c1,inactive: -4.51%
14,O=[As](O)(c1ccc(O)cc1)c1ccccc1O,inactive: -13.6%
15,COc1cc(C(=O)NCC2(N3CCOCC3)CCCCC2)ccc1OCC(C)C,inactive: 40.6%
16,Cc1ccc(OP(=O)(Nc2ccc([N+](=O)[O-])cn2)Oc2ccc(C)cc2)cc1,inactive: -5.48%
17,CC(C)(C)c1ccc(OP(C)(=O)Nc2ccc(SC(F)(F)F)cc2)cc1 (stereo unspecified),inactive: -14.8%
18,Cc1cccc(C)c1OP(C)(N)=O (stereo unspecified),inactive: -11.7%
19,O=[N+]([O-])c1ccc2c(c1)C=Nc1ccccc1O2,inactive: 47.9%

# From PubChem BioAssay AID2717 (Broad Institute, 2010)
